In this test the target is KDR (VEGFR-2), full-length receptor on cells (human), P35968. The conditions noted are these: remark: other sources report otherwise.

Protein sequences, listed by entry. Tags and fused reporters are not part of them. Residues count along the entry.
KDR (VEGFR-2), full-length receptor on cells (human), P35968, UniProt P35968, 20-1356: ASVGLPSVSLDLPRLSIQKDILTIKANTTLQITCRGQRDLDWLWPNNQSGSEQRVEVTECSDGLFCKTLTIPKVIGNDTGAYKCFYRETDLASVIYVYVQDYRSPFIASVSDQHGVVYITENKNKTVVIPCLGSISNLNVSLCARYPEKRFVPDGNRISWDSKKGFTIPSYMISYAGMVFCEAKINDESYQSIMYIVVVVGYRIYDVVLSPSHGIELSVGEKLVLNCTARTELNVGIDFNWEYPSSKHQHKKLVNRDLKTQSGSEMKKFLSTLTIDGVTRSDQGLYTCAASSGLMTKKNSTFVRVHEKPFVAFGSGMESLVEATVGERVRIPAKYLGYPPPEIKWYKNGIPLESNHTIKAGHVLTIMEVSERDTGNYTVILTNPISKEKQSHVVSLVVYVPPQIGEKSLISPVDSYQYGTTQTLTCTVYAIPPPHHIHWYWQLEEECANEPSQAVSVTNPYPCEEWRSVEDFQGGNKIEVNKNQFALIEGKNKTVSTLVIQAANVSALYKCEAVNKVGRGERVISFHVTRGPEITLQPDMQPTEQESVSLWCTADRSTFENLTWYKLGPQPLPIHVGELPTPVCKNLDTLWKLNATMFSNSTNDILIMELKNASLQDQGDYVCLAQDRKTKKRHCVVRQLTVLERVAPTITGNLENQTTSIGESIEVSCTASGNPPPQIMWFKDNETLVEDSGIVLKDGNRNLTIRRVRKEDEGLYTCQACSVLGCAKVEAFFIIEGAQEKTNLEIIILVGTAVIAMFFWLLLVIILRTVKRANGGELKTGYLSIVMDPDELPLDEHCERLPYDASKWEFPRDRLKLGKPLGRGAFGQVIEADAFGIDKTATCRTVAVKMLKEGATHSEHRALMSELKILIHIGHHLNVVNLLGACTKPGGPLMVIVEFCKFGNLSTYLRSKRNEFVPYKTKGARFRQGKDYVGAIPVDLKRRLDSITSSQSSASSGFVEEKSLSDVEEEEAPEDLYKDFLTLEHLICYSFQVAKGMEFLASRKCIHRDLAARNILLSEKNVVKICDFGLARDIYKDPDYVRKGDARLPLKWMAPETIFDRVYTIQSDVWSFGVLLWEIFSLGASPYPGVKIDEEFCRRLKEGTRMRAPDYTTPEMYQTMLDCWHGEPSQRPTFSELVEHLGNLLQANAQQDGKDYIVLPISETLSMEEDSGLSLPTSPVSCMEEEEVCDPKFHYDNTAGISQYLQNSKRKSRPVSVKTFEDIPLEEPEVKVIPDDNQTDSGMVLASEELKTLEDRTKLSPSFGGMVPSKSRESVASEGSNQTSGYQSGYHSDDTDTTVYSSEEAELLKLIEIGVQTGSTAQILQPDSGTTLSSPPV

Usually Kd stands for the equilibrium constant for the complex coming apart. The low end stands for a tighter complex, the high end for a looser complex.

On to AGPKWCEEDWYYCMITGTGGGK (here or on the partner: N-acetyl; disulfide; C-terminal Lys(Biotin-JJ)-NH2) [tetrameric complex of biotinylated SEQ ID NO:264 (JJ spacer) with neutravidin-HRP], for which the Kd came out at 14.9 nM.

The values above are taken from patent US20050250700A1.
